Measured values from PubChem BioAssay AID493160 (Sanford-Burnham Center for Chemical Genomics, 2011).
Only a part is listed here, and it is no random draw. Calls of active or inactive are those of the source.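 Rule for the calls: active = inhibition above about 35% when tested at 20 µM (limit read from the data); inactive = the rest.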

Amino acid sequences for entries named in this document (tags omitted).
UniProt Q2TB90, whole entry: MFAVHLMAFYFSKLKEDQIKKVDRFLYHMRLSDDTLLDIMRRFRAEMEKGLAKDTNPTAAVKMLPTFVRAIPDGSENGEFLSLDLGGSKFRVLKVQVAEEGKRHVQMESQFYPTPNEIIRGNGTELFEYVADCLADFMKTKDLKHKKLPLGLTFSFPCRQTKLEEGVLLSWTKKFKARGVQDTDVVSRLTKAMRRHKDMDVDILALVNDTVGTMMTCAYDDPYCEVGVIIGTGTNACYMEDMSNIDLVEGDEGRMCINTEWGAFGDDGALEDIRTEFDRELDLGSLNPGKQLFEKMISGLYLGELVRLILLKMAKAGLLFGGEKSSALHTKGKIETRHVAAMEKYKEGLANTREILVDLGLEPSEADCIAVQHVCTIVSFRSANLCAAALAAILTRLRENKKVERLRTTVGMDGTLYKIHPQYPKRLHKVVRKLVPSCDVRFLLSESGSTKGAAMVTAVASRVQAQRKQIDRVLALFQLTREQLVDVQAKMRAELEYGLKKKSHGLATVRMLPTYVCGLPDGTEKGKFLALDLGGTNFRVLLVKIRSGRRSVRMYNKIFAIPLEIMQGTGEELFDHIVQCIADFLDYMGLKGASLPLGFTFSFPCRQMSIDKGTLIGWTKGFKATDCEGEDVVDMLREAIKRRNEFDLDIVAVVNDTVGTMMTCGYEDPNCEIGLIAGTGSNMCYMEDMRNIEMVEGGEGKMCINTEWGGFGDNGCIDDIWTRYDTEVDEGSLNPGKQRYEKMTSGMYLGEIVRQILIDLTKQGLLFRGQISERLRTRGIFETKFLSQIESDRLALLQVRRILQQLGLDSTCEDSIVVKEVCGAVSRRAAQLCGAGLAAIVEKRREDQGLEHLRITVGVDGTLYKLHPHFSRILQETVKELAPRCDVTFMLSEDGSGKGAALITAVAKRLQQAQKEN

What follows are compounds tested against Hexokinase HKDC1 (Homo sapiens) (UniProt Q2TB90) (assay: blockers of human HKDC1 enzyme activity – biochemical, fluorescence, uHTS, primary screen (AID 493160;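 note: plate controls were DMSO wells with enzyme for no effect and DMSO wells lacking enzyme for full effect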)). Details: recombinant HKDC1, G6PDH/diaphorase resazurin coupled fluorescence; at 20 µM; active compounds read high.
Outline: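 System: Recombinant HKDC1 hexokinase | Amount: HKDC1 at 5 µg/mL | Reagent: Glucose with 1 mM ATP | Doses: Single 20 µM dose | Incubation: Reaction time 90 min, room temperature, protected from light | Signal: Coupled resazurin fluorescence, excitation 525 nm, emission 613 nm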

| SMILES | inhibition |
| --- | --- |
| CC(C)(C)OC(=O)N1CCC(N(C(=O)c2ccccc2)c2ccc(F)cc2)CC1 | inactive: 1.88% |
| COc1ccc(C(=O)NCC2(N3CCCCC3)CCCCC2)c(OC)c1OC | inactive: -5.46% |
| COc1ccc(C(=O)NCC2(N3CCCCC3)CCCCC2)cc1 | inactive: -5.62% |
| O=C(NCC1(N2CCCCC2)CCCCC1)c1cccs1 | inactive: -0.84% |
| O=C(NCC1(N2CCCCC2)CCCCC1)c1ccc(=O)[nH]c1 | inactive: 0.86% |
| Cc1cccc(NC2(C#N)CCN(Cc3ccccc3)CC2)c1 | inactive: -2.84% |
| CSc1ccccc1C(=O)NCC1(N2CCCCC2)CCCCC1 | inactive: -6.66% |
| Cc1cc(C)cc(N(C(=O)c2ccccc2)C2CCN(C(=O)OC(C)(C)C)CC2)c1 | inactive: -0.51% |
| O=C(NCC1(N2CCCCC2)CCCCC1)c1ccc(Cl)nc1 | inactive: -4.32% |
| O=C(NCC1(N2CCOCC2)CCCCC1)c1cc2ccccc2o1 | inactive: -1.07% |
| COc1ccc(Cl)cc1C(=O)NCC1(N2CCOCC2)CCCCC1 | inactive: -0.1% |
| O=C(OC1CN2CCC1CC2)C1c2ccccc2Oc2ccccc21 (stereo not given) | inactive: 2.81% |
| O=C(NCC1(N2CCCCC2)CCCCC1)c1ccc(Cl)s1 | inactive: -3.51% |
| N#CC1(Nc2ccccc2)CCN(Cc2ccccc2)CC1 | inactive: -1.26% |
| CCOC(=O)N1CCC(Nc2ccc(OC)cc2)CC1 | inactive: -7.66% |
| O=C1CCN(Cc2ccccc2)CC1 | inactive: -9.85% |
| CCOc1ccc(C)cc1CN(CCCl)CCCl | inactive: 9.34% |
| CCOC(=O)N1CCC(Nc2ccc(F)cc2)CC1 | inactive: 8.43% |
| COc1ccc(NC2CCN(CCc3ccccc3)CC2)c(OC)c1 | inactive: 11.6% |
| O=C(NCC1(N2CCCCC2)CCCCC1)c1ccc(F)cc1 | inactive: -5.34% |
| CCCCOc1ccc(C(=O)NCC2(N3CCOCC3)CCCCC2)cc1 | inactive: -2.63% |
| O=P1(N(CCCl)CCCl)SCCCS1 | inactive: -5.98% |
| COc1cc(C(=O)NCC2(N(C)C)CCCCC2)ccc1OC(F)F | inactive: -4.78% |
| CCOC(=O)N1CCC(Nc2cccc(C)c2)CC1 | inactive: 9.57% |
| O=C(NCC1(N2CCCCC2)CCCCC1)c1ccc(OC(F)F)cc1 | inactive: -6.51% |

| SMILES | inhibition |
| --- | --- |
| N#CC1(Nc2ccccc2)CCN(CCc2ccccc2)CC1 | inactive: -5.33% |
| CCN1CCC(Nc2ccc(Cl)cc2)CC1 | inactive: 7.19% |
| O=C(NCC1(N2CCCCC2)CCCCC1)c1cccc([N+](=O)[O-])c1 | inactive: -12.1% |
| CSc1ccc(C(=O)NCC2(N3CCOCC3)CCCCC2)cc1 | inactive: -2.78% |
| O=C(NCC1(N2CCCCC2)CCCCC1)c1cccc(C(F)(F)F)c1 | inactive: -2.76% |
| O=C(NCC1(N2CCOCC2)CCCCC1)c1cc(=O)[nH]c2ccccc12 | inactive: -6.02% |
| COc1cc(C(=O)NCC2(N3CCCCC3)CCCCC2)ccc1OC(F)F | inactive: -3.79% |
| CC(C)c1ccc(C(=O)NCC2(N3CCOCC3)CCCCC2)cc1 | inactive: -2.46% |
| COc1ccc(NC2CCN(C(=O)OC(C)(C)C)CC2)cc1 | inactive: -4.07% |
| CN1CCN(CCOC(=O)C(O)(c2ccccc2)c2ccccc2)CC1 | inactive: -8.26% |
| CC(C)c1ccc(NC2CCN(C(=O)OC(C)(C)C)CC2)cc1 | inactive: 4.79% |
| CN(C)c1cccc(C(=O)NCC2(N3CCCCC3)CCCCC2)c1 | inactive: -7.81% |
| COc1ccc(CN(CCCl)CCCl)cc1Cl | inactive: 10.7% |
| O=C(NCC1(N2CCOCC2)CCCCC1)c1cc(F)c(F)cc1Cl | inactive: -3.11% |
| COc1cc(OC)c(C(=O)NCC2(N(C)C)CCCCC2)cc1OC | inactive: 1.09% |
| O=C(NCC1(N2CCCCC2)CCCCC1)c1cncc(Br)c1 | inactive: -0.01% |
| CN1CCC(Nc2cccc(F)c2)CC1 | inactive: -2.65% |
| CCCOc1ccc(C(=O)NCC2(N(C)C)CCCCC2)cc1OC | inactive: -1.75% |
| COc1cc(C(=O)NCC2(N3CCOCC3)CCCCC2)cc(OC)c1C | inactive: 0.94% |
| O=C(NCC1(N2CCOCC2)CCCCC1)c1cc(Br)ccc1Cl | inactive: -1.76% |
| COc1ccc(C(=O)NCC2(N3CCOCC3)CCCCC2)cc1OC | inactive: -6.82% |
| CCOC(=O)N1CCC(Nc2ccc(C)cc2)CC1 | inactive: -0.19% |
| N/C(=N\O)c1c(N)no[n+]1[O-] | inactive: -0.67% |
| O=C(OC1CN2CCC1CC2)C1c2ccccc2C=Cc2ccccc21 (stereo not given) | inactive: -1.12% |
| CCc1cc(C(=O)NCC2(N3CCCCC3)CCCCC2)sc1C | inactive: -3.65% |

| SMILES | inhibition |
| --- | --- |
| N#Cc1ccc(C(=O)NCC2(N3CCCCC3)CCCCC2)cc1 | inactive: -1.71% |
| CC(C)(C)OC(=O)N1CCC(N(C(=O)c2ccccc2)c2ccc(Cl)cc2)CC1 | inactive: 2.03% |
| CN(C)C1(CNC(=O)c2cccc(C#N)c2)CCCCC1 | inactive: 5.18% |
| Cc1cc(N(CCCl)CCCl)ccc1C=O | inactive: 0.36% |
| CCCN1CCC(Nc2cc(OC)cc(OC)c2)CC1 | inactive: 12.1% |
| c1ccc(CN2CCC(Nc3ccccc3)CC2)cc1 | inactive: -0.54% |
| CC(=O)N(c1ccccc1)C1CCNCC1 | inactive: -6.87% |
| COc1cc(OC)cc(C(=O)NCC2(N3CCCCC3)CCCCC2)c1 | inactive: -6.32% |
| Fc1ccccc1NC1CCN(Cc2ccccc2)CC1 | inactive: 12.9% |
| Cc1ccc(C(=O)NCC2(N3CCCCC3)CCCCC2)o1 | inactive: -1.66% |
| Cc1ccc(NC2(C#N)CCN(Cc3ccccc3)CC2)cc1 | inactive: 0.88% |
| CCN1CCC(Nc2cccc(F)c2)CC1 | inactive: 10.7% |
| Cc1ccccc1NC1(C#N)CCN(Cc2ccccc2)CC1 | inactive: -5.4% |
| Cn1c(=O)[nH]cc(N(CCCl)CCCl)c1=O | inactive: -3.67% |
| CN(C)c1ccc(C(=O)NCC2(N3CCCCC3)CCCCC2)cc1 | inactive: 0.7% |
| O=C(NCC1(N2CCCCC2)CCCCC1)c1ccco1 | inactive: -7.58% |
| CN1CCC(Nc2ccc(F)c(Cl)c2)CC1 | inactive: 0.08% |
| CCOc1ncccc1C(=O)NCC1(N2CCOCC2)CCCCC1 | inactive: -4.52% |
| O=C(O)C1(Nc2ccccc2)CCN(Cc2ccccc2)CC1 | inactive: 4.04% |
| CC(C)(C)OC(=O)N1CCC(Nc2ccccc2)CC1 | inactive: -12.5% |
| CCCOc1ccc(C(=O)NCC2(N(C)C)CCCCC2)cc1 | inactive: -7.26% |
| COc1cccc(C(=O)N(c2cc(C)cc(C)c2)C2CCN(C(=O)OC(C)(C)C)CC2)c1 | inactive: 0.48% |
| COc1cc(OC)cc(C(=O)NCC2(N3CCOCC3)CCCCC2)c1 | inactive: 9.22% |
| CCC(CO)(C(=O)OC1CN2CCC1CC2)c1ccccc1 (stereo not given) | inactive: -11.3% |
| CN1CCC(Nc2ccc(Cl)cc2)CC1 | inactive: -4.52% |
